Laboratory results reported in patent publication US20020177203.

Tested on: (Pro-Pro-Gly)10

“human type 1 prolyl 4-hydroxylase tetramer” showed a Km of 18 µM.
